Target: T1, in vitro translated full-length human 14-3-3β (from 14-3-3β-pET28a) (human, UniProt P31946 1-246)
T1 construct: also called in vitro translated 14-3-3β
T1 sequence (looked up): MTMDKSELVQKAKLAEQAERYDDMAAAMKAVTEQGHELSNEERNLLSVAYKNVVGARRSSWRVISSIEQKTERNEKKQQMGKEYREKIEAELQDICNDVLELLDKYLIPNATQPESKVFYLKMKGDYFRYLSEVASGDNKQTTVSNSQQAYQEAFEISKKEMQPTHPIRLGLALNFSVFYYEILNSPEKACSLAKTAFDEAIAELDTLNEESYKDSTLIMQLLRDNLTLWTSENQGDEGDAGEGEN
Test: GST pull-down on glutathione sepharose, immunoblot with anti-14-3-3β
Protocol: 14-3-3β was in vitro translated from 14-3-3β-pET28a using Expressway™ in vitro protein synthesis system (Invitrogen) per manufacturer's instructions in a 50 μl reaction. GST-Ror2c in pGEX-4T-2 or pGEX-4T-2 (coding for GST alone) were transformed into BL21(DE3) strain of Escherichia coli. Cultures were grown to an A₆₀₀ of 0.7 and induced to express recombinant proteins by addition of isopropyl-1-thio-β-D-galactopyranoside (Sigma; final concentration of 1 mM) and incubation for 4 h. Bacterial pellets were harvested by centrifugation, washed in PBS, and resuspended in 30 ml of PBS supplemented with protease and phosphatase inhibitor cocktails (Sigma). Cells were lysed by passaging twice through a French Pressure Cell Press (Spectronic Instruments, Rochester, N.Y.) at 16,000 p.s.i., and bacterial debris was removed by centrifugation. The produced GST-Ror2c or GST proteins were incubated with glutathione sepharose for 4 h at 4° C. The beads were washed, resuspended in 1 ml PBS and the entire 50 μl of 14-3-3β in vitro translation reaction was added for 4 h at 4° C. At the end of this incubation, the beads were washed three times in PBS, boiled in 2xLDS-PAGE buffer with reducing agent (Invitrogen), and the solubilized proteins were separated by SDS-PAGE. The gels were transferred onto 0.45 μm nitrocellulose membrane before detection with each specific antibody.

binding result: no binding
B1: GST alone (from pGEX-4T-2) (other, UniProt P08515 1-218, looked up)
chain: MSPILGYWKIKGLVQPTRLLLEYLEEKYEEHLYERDEGDKWRNKKFELGLEFPNLPYYIDGDVKLTQSMAIIRYIADKHNMLGGCPKERAEISMLEGAVLDIRYGVSRIAYSKDFETLKVDFLSKLPEMLKMFEDRLCHKTYLNGDHVTHPDFMLYDALDVVLYMDPMCLDAFPKLVCFKKRIEAIPQIDKYLKSSKYIAWPLQGWQATFGGGDHPPK
notes: Control of the pull-down

— patent US20090047287A1 (Pfizer, published 2009)
